Results published in patent US10775391B2, “Nervous system-specific transmembrane proteasome complex that modulates neuronal signaling through extracellular signaling via brain activity peptides” (THE JOHNS HOPKINS UNIVERSITY, priority 2015, dated 2020).

Key:
neuronal cell membranes = conditions: neurons treated with biotin-epoxomicin, cytosolic and membrane fractions
[1] = tested on: cortical neuronal cultures; conditions: 5 minutes of treatment

biotin-epoxomicin
membrane permeability (ability to cross neuronal cell membranes) (neuronal cell membranes): membrane-impermeable
biotin at plasma membranes (immunogold particles) [1]: 91±5%
